Assay results published in PubChem BioAssay AID1452 (National Center for Advancing Translational Sciences (NCATS), 2008).
The list shows a part of the results, in another mix than the full data. Active and inactive are the calls of the source. Calls follow the shape of the dose curve; as a rule, active = well fitted inhibition curve with a large enough effect; inconclusive = small, poorly fitted or top-dose-only effect; inactive = flat fitted curve, though single readings scatter.

By UniProt entry, the sequences of proteins in these tests, tags left out.
UniProt P18054, whole entry: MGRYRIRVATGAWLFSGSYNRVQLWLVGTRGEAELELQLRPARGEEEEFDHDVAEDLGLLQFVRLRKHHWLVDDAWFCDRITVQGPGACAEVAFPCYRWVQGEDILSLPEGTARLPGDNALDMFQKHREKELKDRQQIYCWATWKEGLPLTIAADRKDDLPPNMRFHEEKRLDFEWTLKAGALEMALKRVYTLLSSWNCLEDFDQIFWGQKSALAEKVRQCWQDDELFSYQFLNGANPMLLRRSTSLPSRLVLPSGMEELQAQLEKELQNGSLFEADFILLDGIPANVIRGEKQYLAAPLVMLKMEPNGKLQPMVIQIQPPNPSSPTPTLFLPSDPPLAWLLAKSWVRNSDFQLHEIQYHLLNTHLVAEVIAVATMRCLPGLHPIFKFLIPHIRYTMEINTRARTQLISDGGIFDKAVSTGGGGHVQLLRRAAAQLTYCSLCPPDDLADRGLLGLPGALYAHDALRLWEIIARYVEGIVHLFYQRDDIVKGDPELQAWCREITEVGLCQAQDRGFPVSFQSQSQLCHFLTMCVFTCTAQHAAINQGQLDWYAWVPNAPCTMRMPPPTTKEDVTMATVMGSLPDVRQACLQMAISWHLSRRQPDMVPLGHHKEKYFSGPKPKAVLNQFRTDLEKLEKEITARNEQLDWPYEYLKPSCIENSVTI

Biological target: Polyunsaturated fatty acid lipoxygenase ALOX12 (Homo sapiens) (UniProt P18054)
Test: qHTS Assay for Inhibitors of 12-hLO (12-human lipoxygenase); also: nearly all actives have a fitted effect of over 55% in size
Settings: purified 12-hLO, xylenol orange hydroperoxide absorbance; at 57.1 µM (top of the series) unless noted
From the text: Assay Provider: Holman, T.R., University of California, Santa Cruz Screening Center PI: Austin, C.P. Screening Center: NIH Chemical Genomics Center [NCGC] Human lipoxygenase 12hLO is a member of the closely related lipoxygenase family of enzymes which catalyze the site-specific oxidation of arachidonic acid to various hormone precursor molecules and as such is a candidate for drug development in a variety of disease areas, such as cancer and inflammation. Inhibition of 12hLO activity was screened by utilizing arachidonic acid as a substrate. The extent of hydroperoxide product formation was measured by a secondary chromogenic reaction in which xylenol orange (XO, Sigma-Aldrich, cat. number 39,818-7) reacts with the ferric ions produced from the reaction between the hydroperoxide and ferrous ions. The Fe(III)-XO complex is characterized with red-shifted absorbance at 560 nm. A purified preparation of human 12hLO was supplied by Professor Ted Holman, University of California, Santa Cruz.
Assay Protocol: Buffer: 25 mM Hepes pH 7.0, 0.01% Triton X-100. Reagents/Controls: Buffer in columns 3 and 4 as negative control (no enzyme). Substrate solution: 40 uM arachidonic acid (Sigma-Aldrich, St. Louis, MO) final concentration dispensed throughout the plate. Enzyme: 150 nM 12hLO final concentration in columns 1, 2, 5-48. Column 1 is neutral (100% activity). Column 2 contained pin-transferred titration of NDGA (nordihidroguaiaretic acid, Sigma-Aldrich, N 5023, top concentration 20 mM in DMSO, then 1:3 dilution in duplicate). (Dilution factor: 23 nL into 4 uL.) Chromogenic detection reagent (divalent iron/xylenol orange, Fe-XO): 200 uM xylenol orange plus 300 uM ferrous ammonium sulfate prepared freshly in 50 mM sulfuric acid. Assay Steps: Three uL of enzyme were dispensed to 1536-well Greiner black clear bottom plates. Compounds and controls (23 nL) were transferred via Kalypsys PinTool. The plates were incubated for 15 min at room temperature, and then 1 uL of substrate solution was added to start the reaction. After room temperature incubation for 30 minutes, 4 uL of Fe-XO solution was added to each well and the plates were incubated for 30 min. The absorbance at 405 and 573 nm were measured using ViewLux (Perkin-Elmer) High-throughput CCD imager and absorbance protocol settings. The 573-to-405 absorbance ratio was used to compute reaction progress.
% is scaled to controls: 0 for no effect and ±100 for the full control effect.

| SMILES | activity change, negative = inhibition |
| --- | --- |
| Cc1nc2ccc3ccccc3c2s1.O=[N+]([O-])c1cc([N+](=O)[O-])c(O)c([N+](=O)[O-])c1 | inactive: -25.8% |
| CN1CCCCC1COC(=O)C1(O)c2ccccc2CCc2ccccc21 (stereo not given) | inactive: 2.33% |
| COc1ccccc1OP(C)(=O)Nc1c(C)cccc1C (stereo not given) | inactive: -4.13% |
| CP(=O)(Nc1ccc(SC(F)(F)F)cc1)Oc1ccccc1 (stereo not given) | inactive: 1.9% |
| O=[N+]([O-])c1cccc([N+](=O)[O-])c1 | inactive: -1.22% |
| CC1=NCCc2c1[nH]c1ccccc21.O=[N+]([O-])c1cc([N+](=O)[O-])c(O)c([N+](=O)[O-])c1 | inactive: -1.62% |
| Cc1ccc([N+](=O)[O-])cc1[N+](=O)[O-] | inactive: -5.58% |
| O=[N+]([O-])OCC(CO[N+](=O)[O-])(CO[N+](=O)[O-])CO[N+](=O)[O-] | inactive: -0.386% [at 0.00818 µM] |
| CCOC(=O)c1ccc(NP(C)(=O)Oc2cc(C)cc(C)c2)cc1 (stereo not given) | inactive: -2.19% |
| Cc1cc(C)cc(OP(C)(=O)Nc2ccc(C)cc2C)c1 (stereo not given) | inactive: -11.2% |
| Cc1ccc(C)c(NP(C)(=O)Oc2ccccc2)c1 (stereo not given) | inactive: -5.04% |
| Cc1cc(C)cc(OP(C)(=O)Nc2ccccn2)c1 (stereo not given) | inactive: 2.85% |
| O=[N+]([O-])[O-].[NH4+] | inactive: 2.48% |
| CC(C)(C)c1ccc(OP(C)(=O)Nc2ccc(SC(F)(F)F)cc2)cc1 (stereo not given) | inactive: 1.46% |
| Cc1ccc(NP(C)(=O)Oc2ccccc2)c(C)c1 (stereo not given) | inactive: 6.01% |
| COc1ccccc1OP(C)(=O)Nc1ccc(C)cc1 (stereo not given) | inactive: -4.37% |
| CCOC(=O)c1ccc(NP(C)(=O)Oc2ccccc2)cc1 (stereo not given) | inactive: -1.87% |
| COc1ccc(OP(C)(=O)Nc2cccc(F)c2)cc1 (stereo not given) | inactive: 6.97% |
| N1=C(c2nnc(-c3nn[nH]n3)nn2)NNN1 | inactive: -2.1% [at 11.4 µM] |
| CP(=S)(Nn1cnnc1)Oc1ccccc1 (stereo not given) | inactive: -5.24% |
| CP(=O)(Nc1ccccc1Br)Oc1ccccc1 (stereo not given) | inactive: -1.47% |
| Cc1cccc(C)c1OP(C)(=O)Nc1ccc(SC(F)(F)F)cc1 (stereo not given) | inactive: -4.64% |

| SMILES | activity change, negative = inhibition |
| --- | --- |
| Cc1cc(C)cc(OP(C)(=O)Nc2ccc(SC(F)(F)F)cc2)c1 (stereo not given) | inactive: -5.28% |
| CP(=O)(NC(=O)Nc1ccccc1)Oc1ccccc1 (stereo not given) | inactive: -4.47% |
| CCOC(=O)c1ccc(NP(C)(=O)Oc2ccc(OC)cc2)cc1 (stereo not given) | inactive: -4.44% |
| CCOP(C)(=S)SCC(=O)NC(C)C(=O)O (stereo not given) | inactive: 8.07% |
| CP(=O)(Nc1ccccn1)Oc1ccc(Cl)cc1 (stereo not given) | inactive: -6.3% |
| COc1ccc(OP(C)(=O)Nc2ccc(Br)cc2)cc1 (stereo not given) | inactive: -3.77% |
| CCN(CC)CC(O)COC(=O)C(O)(c1ccccc1)C1CCCCC1 (stereo not given) | inactive: 3.04% |
| N#[O+].[C-]#N.[C-]#N.[C-]#N.[C-]#N.[C-]#N.[Fe+2].[Na+].[Na+] | inactive: -4.3% |
| OCCSCCO | inactive: -1.1% |
| COc1ccccc1OP(C)(=O)Nc1c(C)n(C)n(-c2ccccc2)c1=O (stereo not given) | inactive: 3.17% |
| CP(=O)(Oc1ccccc1)N1CCOC1=O (stereo not given) | inactive: -3.58% |
| CC(C)(C)c1ccc(OP(C)(=O)O)cc1 | inactive: 3.87% |
| CP(=O)(Nc1ccc(Cl)cc1)Oc1ccc(F)cc1 (stereo not given) | inactive: -1.03% |
| CCOC(=O)c1ccc(NP(C)(=O)Oc2ccc(Cl)cc2)cc1 (stereo not given) | inactive: -2.1% |
| CP(=O)(OC12CC3CC(CC(C3)C1)C2)OC12CC3CC(CC(C3)C1)C2 | inactive: 8.34% |
| C/C1=C2N=C(/C=C3N=C(/C(C)=C4\[N-][C@@](C)([C@H]5N=C1[C@@](C)(CCC(=O)NC[C@H](C)OP(=O)([O-])O[C@@H]1[C@H](O)[C@H](n6cnc7cc(C)c(C)cc76)O[C@@H]1CO)[C@@H]5CC(N)=O)[C@](C)(CC(N)=O)[C@H]4CCC(N)=O)[C@@](C)(CC(N)=O)[C@@H]\3CCC(N)=O)C(C)(C)[C@@H]/2CCC(N)=O.[C-]#N.[Co+3] | inactive: -1.61% [at 25.6 µM] |
| COc1ccccc1OP(C)(=O)Nc1ccc(C)c(C)c1 (stereo not given) | inactive: -6.7% |
| COc1ccc(OP(C)(=O)Nc2ccccc2Br)cc1 (stereo not given) | inactive: -3.81% |
| COc1ccc(OP(C)(=O)Nc2ccccn2)cc1 (stereo not given) | inactive: -1.02% |
| CN(C)CCOC(=O)C(O)(c1ccccc1)C1CCCC1 (stereo not given) | inactive: -0.364% |
| Cc1c(NP(C)(=O)Oc2ccc(C(C)C)cc2)c(=O)n(-c2ccccc2)n1C (stereo not given) | inactive: -7.61% |
| COc1ccccc1OP(C)(=O)Nc1ccc(C)cc1C (stereo not given) | inactive: -1.79% |

| SMILES | activity change, negative = inhibition |
| --- | --- |
| CP(=O)(Nc1ccccn1)Oc1ccccc1 (stereo not given) | inactive: 5.46% |
| CCc1ccc(OP(C)(=O)O)cc1 | inactive: -1.84% |
| CP(=O)(Nc1ccccc1F)Oc1ccccc1 (stereo not given) | inactive: -4.98% |
| CC(C)c1ccc(OP(C)(=O)Nc2ccc(SC(F)(F)F)cc2)cc1 (stereo not given) | inactive: -1.72% |
| O=C(OCCN1CCN(CCOCc2ccccc2)CC1)C(O)(c1ccccc1)c1ccccc1 | inactive: -3.41% |
| Cc1cccc([N+](=O)[O-])c1[N+](=O)[O-] | inactive: -2.59% |
| CCC(C)(OO)OOC(C)(CC)OO (stereo not given) | inactive: 0.803% |
| CCOC(=O)c1ccc(NP(C)(=O)Oc2ccc(F)cc2)cc1 (stereo not given) | inactive: -7.69% |
| CCN(CC)CCCOC(=O)C(O)(c1ccccc1)C1CCCCC1 (stereo not given) | inactive: 7.18% |
| CP(=O)(Nc1ccccc1)Oc1ccc(F)cc1 (stereo not given) | inactive: 4.64% |
| COc1ccc(OP(C)(=O)Nc2cccc(Br)c2)cc1 (stereo not given) | inactive: -7.81% |
| CN(C)CCOC(=O)C(O)(c1ccccc1)C1CCCCC1 (stereo not given) | inactive: 1.3% |
| Cc1c([N+](=O)[O-])cccc1[N+](=O)[O-] | inactive: -0.963% |
| Cc1ccc([N+](=O)[O-])c([N+](=O)[O-])c1 | inactive: -1.16% |
| CCOP(C)(=S)SCC(=O)NC(C)(CC)C(=O)O (stereo not given) | inactive: 7.54% |
| CCOP(=O)(CC)OCC | inactive: 2.31% |
| CP(=O)(Nc1ccc2c(c1)OCCO2)Oc1ccccc1 (stereo not given) | inactive: 1.3% |
| [NH4+].[O-][Cl+3]([O-])([O-])[O-] | inactive: 2.77% |
| Cc1ccccc1NP(C)(=O)Nc1ccccc1C | inactive: -0.521% |
| CCN(CCCl)Cc1ccccc1C | inactive: 6.23% |
| NNC(NN)NN.n1nc(-c2nn[nH]n2)n[nH]1 | inactive: -9.02% [at 11.4 µM] |
